The assay relates to BTK phosphorylation. Briefly: Immunoblot of phospho-BTK. Type of assay: cell-based, human. As to conditions: AML cell lines; MOLM-13 1 µM for 1 hour (Figure S2). The method, then:
Cells were washed in ice-cold PBS then lysed in 1X Cell Lysis Buffer (CST) supplemented with proteinase and phosphatase inhibitors cocktail (Roche). Pierce BCA Protein Assay was used to quantify the protein lysates (Thermo Fisher Scientific, Waltham, MA). For Immunoblotting, 15–25 μg of protein lysate was prepared in 2X or 4X Laemmeli’s sample buffer (Bio-Rad Laboratories, Hercules, CA) and heated for 5 min at 100 °C. Samples were separated on 8% sodium dodecyl sulfate polyacrylamide gel and transferred onto nitrocellulose membrane (Bio-Rad Laboratories, Hercules, CA). The membranes were blocked for 1 h in Blocker BLOTTO Blocking Buffer (Thermo Fisher Scientific, Waltham, MA) or 5% non-fat milk followed by overnight incubation at 4 °C with primary antibody followed by HRP-conjugated secondary antibodies and visualized with chemiluminescent Pierce ECL Substrate (Thermo Fisher Scientific, Waltham, MA) on X-ray films.
Immunoblot analysis for MOLM-13, MV4-11, and OCI-AML3 AML cell lines (representative of 2-3 independent blots). […] Twenty to 25 μg of total protein lysate was loaded per lane.
For orientation: A western blot detects proteins with antibodies after separation by electrophoresis.

Molecules are shown by their SMILES.

Turning to `c1cn2cc(-c3ccc4cn[nH]c4c3)nc(Nc3ccc(N4CCOCC4)cc3)c2n1` [entospletinib, Entospletinib, reference compound], the “effect on BTK phosphorylation” value is recorded as “no effect on BTK phosphorylation”.

The record behind these values is article PMC6988309, “Preclinical efficacy for a novel tyrosine kinase inhibitor, ArQule 531 against acute myeloid leukemia” (Journal of Hematology & Oncology, 2020).
